## Yeast mating assay 2: variants of the scFv Ab-95

Target peptide (SARS-CoV-2 spike, HR2 region): PDVDLGDISGINAS

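The starting antibody came from a phage panning campaign against this peptide. The library (AAYL52) carries one to three amino acid substitutions per variant, with no insertions or deletions. AlphaSeq pools MATa yeast showing the antibodies with MATalpha yeast showing the peptide. After mating in shaken culture at 30 °C for 16 h, diploids were selected and their barcode pairs sequenced. A regression on co-assayed BCL2-family reference pairs converts the normalised counts of each replicate to an apparent Kd. Each pool was mated in three replicate cultures.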

Parent scFv Ab-95: VH joined to VL by a (GGGGS)3 linker. Changes lie in the light chain CDRs alone.
VH: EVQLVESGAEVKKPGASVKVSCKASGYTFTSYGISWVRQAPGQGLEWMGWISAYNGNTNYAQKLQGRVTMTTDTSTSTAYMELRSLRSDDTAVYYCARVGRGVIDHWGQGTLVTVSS
VL: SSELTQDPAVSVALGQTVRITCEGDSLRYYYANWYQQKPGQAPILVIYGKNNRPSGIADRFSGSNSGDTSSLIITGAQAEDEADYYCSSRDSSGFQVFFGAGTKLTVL

The whole VL of each variant is written out. This list gathers variants with a substitution at N33 (VL, numbered from residue 1). Values are apparent Kd, the geometric mean of the replicates that gave a signal; lower means stronger binding. A pair that was not seen in any replicate is written "nd"; this usually means weak binding, but a binder can also be missed. Parent in this assay: reference entry 200 nM, copy in this library 180 nM.

With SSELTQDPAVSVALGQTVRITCEGDSPRYYYALWYQQKPGQAPILVIYGKNNRPSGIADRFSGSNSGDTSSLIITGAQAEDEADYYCSSRDSSGFQVFFGAGTKLTVL the result was 1.6 µM (3 of 3 replicates; controls 5 of 9).
With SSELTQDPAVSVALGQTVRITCEGDSLRYYYAYWYQQKPGQAPILVIYGKNNRPSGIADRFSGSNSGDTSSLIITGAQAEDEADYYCSSRDSSGFQVFFGAGTKLTVL the result was 1.9 µM (3 of 3 replicates; controls 5 of 9).
With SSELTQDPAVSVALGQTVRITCEGDSLRYYYAVWYQQKPGQAPILVIYGINNRPSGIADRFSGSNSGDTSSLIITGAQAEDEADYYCSPRDSSGFQVFFGAGTKLTVL the result was nd (0 of 3 replicates; controls 2 of 9).
With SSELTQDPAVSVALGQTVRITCEGDSLRYYYAQWYQQKPGQAPILVIYGKNNRPSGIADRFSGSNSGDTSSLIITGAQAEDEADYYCSSRDSSGFQVFFGAGTKLTVL the result was 5.8 µM (3 of 3 replicates; controls 0 of 9).
With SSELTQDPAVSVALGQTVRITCAGDSLRYYYAFWYQQKPGQAPILVIYGKNNRPSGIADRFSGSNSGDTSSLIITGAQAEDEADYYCSSRDSLGFQVFFGAGTKLTVL the result was 8.9 µM (1 of 3 replicates; controls 2 of 9).
With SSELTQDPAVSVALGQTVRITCEGDSLRYYYADWYQQKPGQAPILVIYGKNNRPSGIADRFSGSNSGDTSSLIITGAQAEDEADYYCSSRDSSGLQEFFGAGTKLTVL the result was 660 nM (1 of 3 replicates; controls 1 of 9).
With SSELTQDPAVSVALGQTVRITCEGDSLRYYYACWYQQKPGQAPILVIYGKNNRASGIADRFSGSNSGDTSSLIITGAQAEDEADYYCHSRDSSGFQVFFGAGTKLTVL the result was 4.5 µM (1 of 3 replicates; controls 4 of 9).
With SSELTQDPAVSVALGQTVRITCEGDSLRYYYAWWYQQKPGQAPILVIYGKNNPPSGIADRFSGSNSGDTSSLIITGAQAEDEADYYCSSRDSSGMQVFFGAGTKLTVL the result was 5.8 µM (2 of 3 replicates; controls 3 of 9).
With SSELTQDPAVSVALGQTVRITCEGDSLRYYYAWWYQQKPGQAPILVIYGCNNVPSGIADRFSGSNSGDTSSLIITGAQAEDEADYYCSSRDSSGFQVFFGAGTKLTVL the result was 9.6 µM (2 of 3 replicates; controls 1 of 9).
With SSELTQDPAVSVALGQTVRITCEGDSLRYWYAVWYQQKPGQAPILVIYGKNNRPSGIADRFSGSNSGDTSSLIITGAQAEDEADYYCSSIDSSGFQVFFGAGTKLTVL the result was 7.7 µM (2 of 3 replicates; controls 1 of 9).
With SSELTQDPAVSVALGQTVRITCEGDSLRYYYASWYQQKPGQAPILVIYGKNKRPSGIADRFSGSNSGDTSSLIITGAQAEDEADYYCSSRDSNGFQVFFGAGTKLTVL the result was nd (0 of 3 replicates; controls 0 of 9).
With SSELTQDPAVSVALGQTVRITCEGDELRYYYARWYQQKPGQAPILVIYGKNNRPSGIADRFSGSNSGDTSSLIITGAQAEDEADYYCSSRDRSGFQVFFGAGTKLTVL the result was 450 nM (3 of 3 replicates; controls 4 of 9).
With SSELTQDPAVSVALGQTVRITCEGDSLKYYYARWYQQKPGQAPILVIYGKNNRPSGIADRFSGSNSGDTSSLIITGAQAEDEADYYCSSRDSSGFQVFFGAGTKLTVL the result was 3.2 µM (3 of 3 replicates; controls 3 of 9).
With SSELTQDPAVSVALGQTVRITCEGDSLRMYYAMWYQQKPGQAPILVIYGKNNRPSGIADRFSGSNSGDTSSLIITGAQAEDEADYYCHSRDSSGFQVFFGAGTKLTVL the result was 110 µM (1 of 3 replicates; controls 3 of 9).
With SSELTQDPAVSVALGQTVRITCEGDSLRYYYAAWYQQKPGQAPILVIYGKNNRPSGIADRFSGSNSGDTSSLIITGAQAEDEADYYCNSRDSSGFQVFFGAGTKLTVL the result was 340 µM (2 of 3 replicates; controls 2 of 9).
With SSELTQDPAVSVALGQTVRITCEGDSLRYYYAHWYQQKPGQAPILVIYGKNNYPSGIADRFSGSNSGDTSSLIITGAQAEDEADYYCSSRDSSGFQVIFGAGTKLTVL the result was nd (0 of 3 replicates; controls 2 of 9).
With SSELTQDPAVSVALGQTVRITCCGHSLRYYYAEWYQQKPGQAPILVIYGKNNRPSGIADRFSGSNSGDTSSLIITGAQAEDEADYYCSSRDSSGFQVFFGAGTKLTVL the result was nd (0 of 3 replicates; controls 1 of 9).
With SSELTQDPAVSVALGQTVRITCEGDSLRYYYAIWYQQKPGQAPILVIYGKNNRPSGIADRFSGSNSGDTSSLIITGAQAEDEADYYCSSRDSSGTQVIFGAGTKLTVL the result was 7.3 µM (1 of 3 replicates; controls 4 of 9).
With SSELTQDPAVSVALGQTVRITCEGKSLRYYYACWYQQKPGQAPILVIYGKNWRPSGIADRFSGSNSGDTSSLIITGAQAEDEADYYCSSRDSSGFQVFFGAGTKLTVL the result was 34 µM (2 of 3 replicates; controls 1 of 9).

The first 2 variants above that were never detected:

| VL | Kd | replicates with signal | signal with controls |
|---|---|---|---|
| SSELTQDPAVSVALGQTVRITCEGDSLRYYYAVWYQQKPGQAPILVIYGINNRPSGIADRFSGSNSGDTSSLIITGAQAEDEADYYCSPRDSSGFQVFFGAGTKLTVL | nd | 0/3 | 2/9 |
| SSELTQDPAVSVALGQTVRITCEGDSLRYYYASWYQQKPGQAPILVIYGKNKRPSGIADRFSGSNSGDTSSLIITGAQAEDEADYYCSSRDSNGFQVFFGAGTKLTVL | nd | 0/3 | 0/9 |

Empty control strains, which show no peptide, gave a signal in 28% of pairings with library AAYL52; the median was 8.2 µM and 95% of these signals were weaker than 800 nM. No background was subtracted. The control count says in how many pairings with the empty strains this scFv gave a signal.

Reference: Engelhart et al. 2022, doi:10.1038/s41597-022-01779-4. File: FLAb, binding data.